According to article PMC5646733:

How the values were obtained:
[1] = biological target: EGF receptor (EGFR) (human (endogenous in MDA-MB-468 and 231-H2N)) (UniProt P00533)
[2] = biological target: EGF receptor (EGFR) (human (endogenous in MDA-MB-468 and 231-H2N)) (UniProt P00533); remark: listed apart in the source

Row | proportion of total radioactivity internalised by MDA-MB-468 cells after 4 h (EGF, 40 nM; surface-bound radioactivity removed with glycine·HCl pH 2.5) (% of total radioactivity) [1] | uptake of radioactivity in MDA-MB-468 xenografts in mice at 72 h p.i., with 30 µg unlabelled EGF coadministered, against none [2] [%ID/g] | Substance
1 | 15.3 | – | ^111In-EGF-Au NP (111In-labelled DTPA-EGF attached to 14 nm gold nanoparticles, non-PEGylated) (ligand)
2 | 15.1 | – | ^111In-EGF-Au-PEG800 NP (ligand)
3 | 13.2 | – | ^111In-EGF-Au-PEG2000 NP (ligand)
4 | 11.1 | 1.37 | ^111In-EGF-Au-PEG6000 NP (ligand)
